From patent publication US11925672B2, “Peptide having antioxidant activity and composition containing same” (SEMPIO FOODS COMPANY, priority 2018, dated 2024) come the findings set out here.

Experiment [1] can be described thus: DPPH-scavenging ability assay. It is filed as biochemical. The note with it: peptides; vs GSH. The procedure:
2. DPPH (2,2-Diphenyl-1-Picryl-Hydrazyl-Hydrate) Assay Method
The antioxidant activity due to the DPPH-scavenging ability of yeast hydrolyzates was measured using the methods of Choi Chang-seop et al. (2003) and Shekhar et al. (2014). 20 μl of a sample (1 to 5000 μg/ml) dissolved in distilled water was added to 180 μl of an ethanol solution containing DPPH (0.111 mM). The resulting mixture was allowed to react at 25° C. for 30 minutes, and absorbance was measured at 517 nm. Ascorbic acid was used to create the standard curve, and DPPH-scavenging ability (%) was calculated and expressed by the equation of [(absorbance upon no addition of sample−absorbance of sample)/absorbance upon no addition of sample]×100.
(§1) The DPPH-scavenging ability and reducing power of the fractions of respective yeast hydrolyzates (Preparation Examples 1 to 4) were measured using the same method of measuring DPPH-scavenging ability and reducing power as in Experimental Example 1.
(DPPH is a stable violet radical that fades when it is reduced.)

For experiment [2], the system named is Nrf2 mRNA. Put plainly: Nrf2 mRNA expression level by real-time PCR in Tert-BHP-treated HEK293 cells. The note with it: Tert-BHP 300 μM, 18 hours; for effect on expression of Nrf2 mRNA / Nrf2 mRNA expression compared to positive control GSH: peptide 500 μM; for effect on expression of Nrf2 mRNA: FIGS. 5A to 5C; for Nrf2 mRNA expression compared to positive control GSH: vs GSH. It counts as cell-based. On the procedure:
In the present invention, the antioxidant activity was compared between the 100 types of peptides, and the change in Nrf2 mRNA expression was measured through PCR in order to select the final peptide.
An HEK293 cell (kidney cell) line was seeded at a density of 6.6×10^5/well in DMEM (Dulbecco's Modified Eagle's Medium) medium on a 6-well plate and cultured at 37° C. under 5% CO2 for 24 hours. The next day, the medium was exchanged with serum and amino-acid-free media, and then the cells were further cultured for 20 hours or longer. The cells were treated with Tert-BHP (300 μM) and 500 μM 100 types of peptides, and then cultured for 18 hours.
RNA was extracted from the cells treated with 100 types of peptides in (1) using TRIzol (Thermo Fisher Scientific). A GoScript™ Reverse Transcription System (Promega, Wisconsin, USA) was used to synthesize cDNA from the RNA. The cDNA was synthesized by performing annealing using 1 μg of RNA, 0.5 μg of an oligo dt primer, 0.5 μg of a random primer and RT-PCR pre-mixture at 25° C. for 5 minutes, extension at 42° C. for 60 minutes, and inactivation at 70° C. for 15 minutes.
(§2) PCR was performed using Maxime™ PCR PreMix (i-StarTaq) (Intron Biotechnology, Korea). Real-time PCR was performed using SsoAdvanced™ Universal SYBR® Green Supermix (Bio-Rad, USA). 100 ng of cDNA, 2 μM (pmol/μl) primers, 10 μl of 2X SsoAdvanced™ Universal SYBR® Green Supermix and DW were added to the PCR plate well. Then, the temperature was cyclically adjusted to 95° C. for 3 minutes, 95° C. for 10 seconds and 58° C. for 40 seconds for a total of 40 cycles. A PCR reaction was performed using a CFX96 Touch™ Real-Time PCR Detection System (Bio-Rad, California, USA), and fluorescence intensity was measured at the end of each cycle.
A general note: In qPCR the cycle at which signal appears reflects the starting amount.

Experiment [3] has as its system SOD2 mRNA. Put plainly: SOD2 mRNA expression level by real-time PCR in Tert-BHP-treated HEK293 cells. It counts as cell-based. The note with it: Tert-BHP 300 μM, peptide 500 μM, 18 hours; for effect on SOD2 mRNA expression: FIG. 6; for SOD2 mRNA expression compared to positive control GSH: vs GSH. On the procedure:
The expression of SOD2 mRNA as another antioxidant factor was determined. The cell line culture, RNA extraction, cDNA synthesis and PCR experiments were performed in the same manner as in Experimental Example 5 above. A detailed description thereof is given below.
An HEK293 cell (kidney cell) line was seeded at a density of 6.6×10^5/well in DMEM (Dulbecco's Modified Eagle's Medium) medium on a 6-well plate and cultured at 37° C. and 5% CO2 for 24 hours. The next day, the medium was exchanged with serum and amino-acid-free media, and then the cells were further cultured for 20 hours or longer. The cells were treated with Tert-BHP (300 μM) and 500 μM 100 types of peptides, and then cultured for 18 hours.
RNA was extracted from the cells treated with 100 types of peptides in (1) using TRIzol (Thermo Fisher Scientific). A GoScript™ Reverse Transcription System (Promega, Wisconsin, USA) was used to synthesize cDNA from the RNA. The cDNA was synthesized by performing annealing with 1 μg RNA, 0.5 μg of an oligo dt primer, 0.5 μg of a random primer, and RT-PCR pre-mixture at 25° C. for 5 minutes, extension at 42° C. for 60 minutes, and inactivation at 70° C. for 15 minutes.
as §2, with “using the” for “using a”

Experiment [4] can be described thus: Reducing power assay (method of Oyaizu). The note with it: peptides; vs GSH. On the procedure:
3. Reducing Power Assay Method
The reducing power of yeast hydrolysates was measured using the method of Oyaizu (1986). Specifically, a sample (1-5000 μg/ml, 60 μl) dissolved in distilled water was mixed with phosphate buffer (150 μl, 0.2M, pH 6.6) and potassium ferricyanide (K 3 Fe(CN) 6, 150 μl, 1%), followed by reacting at 50° C. for 20 minutes. Further, 150 μl of trichloroacetic acid (10%) was added thereto, followed by centrifugation at 2,000 g for 10 minutes. 150 μl of the supernatant containing the sample was added to 150 μl of DW and FeCl3 (30 μl, 0.1%). The resulting mixture was allowed to react at 25° C. for 10 minutes, and absorbance was measured at 700 nm.
as §1

Entries after “also recorded” stand apart in the source; their conditions may differ.

“γ-GLU-CYS(S-Me)(O2) (EC; gamma-glutamyl linkage; S-methyl cysteine dioxide; In the peptide, Cys is Cys(Me)(O2), which is characterized in that the hydrogen of the thiol group is substituted with a methyl group and has a sulfoxide structure. Cys(Me)(O2) can be referred to as S-(methyl)-cysteine sulfoxide. The peptide is a formed by; (2)..(2) cysteine in which hydrogen of the thiol group is substituted with a methyl group and which has a sulfoxide structure) [γ-GLU-CYS(S-Me) (O2)]”: the “DPPH-scavenging ability of peptide compared to GSH” value in experiment [1] is “comparable or superior to GSH”. Moreover, in experiment [2], the “effect on expression of Nrf2 mRNA” value is reported as “improve the expression of Nrf2 mRNA” and the “Nrf2 mRNA expression compared to positive control GSH” value is “statistically significant activity; also recorded: comparable or superior to GSH”. Moreover, the “Nrf2 mRNA expression compared to positive control GSH” value in experiment [2] (listed as γ-GLU-CYS(S-Me) (02)) is “comparable or superior”. Moreover, in experiment [2] (same concentration as GSH (500 μM)), the “increase of Nrf2 mRNA expression level compared to GSH” value is “more than four”. Further, in experiment [3], the “effect on SOD2 mRNA expression” value is listed as “increased SOD2 mRNA expression” and the “SOD2 mRNA expression compared to positive control GSH” value is given as “comparable or superior; also recorded: statistically significant activity”. The “reducing power of peptide compared to GSH” value in experiment [4] was “comparable or superior to GSH”.
On to “γ-GLU-ILE (EI; gamma-glutamyl linkage; The peptide is a formed by condensation of the gamma-carboxy group of L-glutamic acid with the amino group of L-isoleucine.)”, for which, in experiment [1], the “DPPH-scavenging ability of peptide compared to GSH” value was “comparable or superior to GSH”. Further, in experiment [2], the “effect on expression of Nrf2 mRNA” value is on record as “improve the expression of Nrf2 mRNA” and the “Nrf2 mRNA expression compared to positive control GSH” value is on record as “statistically significant activity; also recorded: comparable or superior to GSH”. Also, in experiment [3], the “effect on SOD2 mRNA expression” value is recorded as “increased SOD2 mRNA expression” and the “SOD2 mRNA expression compared to positive control GSH” value is listed as “comparable or superior; also recorded: statistically significant activity”. Further, in experiment [4], the “reducing power of peptide compared to GSH” value was “comparable or superior to GSH”.
